Reference: patent US5726177A, “Indole-derived arylpiperazines as ligands for 5HT1 -like, 5HT1B and 5HT1D receptors” (Pierre Fabre Medicament, priority 1993, dated 1998)
Where a name gives a salt, the structure may show the parent alone. Read-outs that look alike come from different tables or passages of the source.

The chains behind the UniProt entries cited, without tags or fusion partners.
UniProt P08908, whole entry: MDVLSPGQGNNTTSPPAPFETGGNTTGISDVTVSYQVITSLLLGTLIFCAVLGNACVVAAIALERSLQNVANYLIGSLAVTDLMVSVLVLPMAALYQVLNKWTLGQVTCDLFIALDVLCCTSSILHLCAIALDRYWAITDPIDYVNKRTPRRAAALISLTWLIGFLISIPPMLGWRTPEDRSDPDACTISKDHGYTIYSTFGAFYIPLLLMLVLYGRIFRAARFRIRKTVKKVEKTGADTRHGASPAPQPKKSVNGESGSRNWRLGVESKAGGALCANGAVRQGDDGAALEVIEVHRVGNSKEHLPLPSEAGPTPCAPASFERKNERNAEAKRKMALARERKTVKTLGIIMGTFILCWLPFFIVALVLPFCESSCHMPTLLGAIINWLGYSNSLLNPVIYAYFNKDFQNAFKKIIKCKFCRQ

Target: human 5HT1A receptor (Homo sapiens, UniProt P08908)
Test: Binding to human 5HT1A receptor (HeLa HA7 cell line)
Procedure: The HeLa HA7 cell line expressing the 5HT1A human receptor was obtained from Tulco (Duke Univ., Durham, N.C., USA) and cultured according to the method of Fargin et al., J. Biol. Chem., 264, 14848 (1989).
The binding of the derivatives of the present invention with human 5HT1Da, 5HT1Db and 5HT1A receptors was studied according to the method described by P. Pauwels and C. Palmier (Neuropharmacology, 33, 67, 1994).
The incubation media for these binding measurements comprise 0.4 ml of cell membrane preparation, 0.05 ml of a tritiated ligand [[3H]-SCT (final concentration: 2 nM) for the 5HT1Da and 5HT1Db receptors and [3H]-80H-DPAT (final concentration: 1 nM) for the 5HT1A receptor] and 0.05 ml of the molecule to be tested (final concentrations from 0.1 nM to 1000 nM) or 10 μM (final concentration) of serotonin (5HT1Da and 5HT1Db) or 1 μM (final concentration) of spiroxatrin (5HT1A ).

[1] = HeLa HA7 cells, [3H]-DPAT ligand 1 nM

Row | Ki [1] [nM] | Structure (SMILES) | Ki [nM]
1 | 73 | CS(=O)(=O)Nc1ccc(N2CCN(C(=O)COc3ccc4[nH]cc(CCN)c4c3)CC2)cc1 [Example 5, N-[4-(4-{2-[3-(2-Aminoethyl)-1H-indol-5-yloxy]acetyl}piperazin-1-yl)phenyl]methanesulfonamide hydrochloride] | 
2 | 9.3 | CS(=O)(=O)Nc1ccc(N2CCN(C(=O)CCCCCOc3ccc4[nH]cc(CCN)c4c3)CC2)cc1 [Example 59, N-[4-(4-{6-[3-(2-Aminoethyl)-1H-indol-5-yloxy]hexanoyl}piperazin-1-yl)phenyl]methane sulfonamide hydrochloride] | 
3 |  | CC(=O)Nc1ccc(N2CCN(C(=O)COc3ccc4[nH]cc(CCN)c4c3)CC2)cc1 [Example 3, N-[4-(4-{2-[3-(2-Aminoethyl)-1H-indol-5-yloxy]acetyl}piperazin-1-yl)phenyl]acetamide hydrochloride] | 78.6

Row | Structure (SMILES) | Ki [1] [nM] | Ki [nM]
4 | NCCc1c[nH]c2ccc(OCC(=O)N3CCN(c4ccc([N+](=O)[O-])cc4)CC3)cc12 [Example 1, 2-[3-(2-Aminoethyl)-1H-indol-5-yloxy]-1-[4-(4-nitrophenyl)piperazin-1-yl]ethanone hydrochloride] | 25 | 
